Values quoted from earlier work in publication PMC7008171 (Frontiers in Pharmacology, 2020).

Conditions: model input, cited from earlier work

For Cc1nc2n(c(=O)c1CCN1CCC(c3noc4cc(F)ccc34)CC1)CCCC2 [risperidone], the “log P (octanol/water partition coefficient)” value (ref Drugbank) is given as 3.04 ^a and the pKa1 (ref Pubchem) is given as 8.24.

Marks after values point to notes of the source that are not given here.
